Test results: patent US20210046106A1, “METHODS OF TREATING CANCER WITH ANDROGEN DEPRIVATION THERAPY IN COMBINATION WITH AN INHIBITOR OF THE SP1 TRANSCRIPTION FACTOR” (The Board of Trustees of the Leland Stanford Junior …, priority 2019, published 2021)

Assay: Phase 1 trial: population PK model (NONMEM, 1-compartment, oral absorption) and simulations
Settings: range 395-790 mcg/L

SMILES: O=[Se](O)O [sodium selenite, Sodium selenite pentahydrate]
- reaching the desired therapeutic range after a single dose (simulation FIG. 8(a)): only the higher dose levels (33 mg and 49.5 mg) reach the desired therapeutic range
- time to enter the desired therapeutic range (simulation, 11 mg given twice daily): approximately 1 day
